Measurements from ChEMBL document CHEMBL1148745, “Heterocyclic analogues of N-(4-(4-(2,3-dichlorophenyl)piperazin-1-yl)butyl)arylcarboxamides with functionalized linking chains as novel dopamine D3 receptor ligands: potential substance abuse therapeutic agents” (J Med Chem, 2007).

Sequences of proteins named here, by UniProt entry; tags and fusion partners are left off.
UniProt P14416, whole entry: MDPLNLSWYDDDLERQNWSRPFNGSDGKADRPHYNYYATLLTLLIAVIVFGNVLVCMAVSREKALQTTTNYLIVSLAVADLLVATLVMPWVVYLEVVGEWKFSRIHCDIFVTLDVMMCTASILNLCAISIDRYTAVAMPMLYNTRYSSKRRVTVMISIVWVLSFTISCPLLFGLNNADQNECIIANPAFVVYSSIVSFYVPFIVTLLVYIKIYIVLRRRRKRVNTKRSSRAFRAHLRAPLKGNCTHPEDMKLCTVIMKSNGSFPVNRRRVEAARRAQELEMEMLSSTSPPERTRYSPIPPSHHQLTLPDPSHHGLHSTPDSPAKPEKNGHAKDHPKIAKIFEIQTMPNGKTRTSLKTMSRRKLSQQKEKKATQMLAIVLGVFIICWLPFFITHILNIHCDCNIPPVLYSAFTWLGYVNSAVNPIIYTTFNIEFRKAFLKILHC

Key:
D(2) dopamine receptor = D(2) dopamine receptor (Homo sapiens, UniProt P14416); experiment: Displacement of [125I]IABN from human dopamine D2 receptor expressed in HEK293 cells; format: cell-based
Homo sapiens [1] = species: Homo sapiens; experiment: Selectivity for human dopamine D3 receptor over human 5HT1A receptor
Homo sapiens [2] = species: Homo sapiens; experiment: Selectivity for human dopamine D3 receptor over human 5HT2A receptor
Homo sapiens [3] = species: Homo sapiens; experiment: Selectivity for human dopamine D3 receptor over human 5HT2C receptor

O=C(NC[C@H]1C[C@H]1CN1CCN(c2cccc(Cl)c2Cl)CC1)c1ccc(-c2ccccn2)cc1 (relative stereo)
Ki (D(2) dopamine receptor): 1050 nM

COc1ccccc1N1CCN(CCCCNC(=O)c2ccc(-c3ccccn3)cc2)CC1
Ki (D(2) dopamine receptor): 28.3 nM | Ratio Ki (Homo sapiens [1]): 17 | Ratio Ki (Homo sapiens [2]): 570 | Ratio Ki (Homo sapiens [3]): 1840

COc1ccccc1N1CCN(CCCCNC(=O)c2ccc3c(c2)Cc2ccccc2-3)CC1
Ki (D(2) dopamine receptor): 55.4 nM | Ratio Ki (Homo sapiens [1]): 113 | Ratio Ki (Homo sapiens [2]): 520 | Ratio Ki (Homo sapiens [3]): 1090
